# The NIST ThermoML archive (doi:10.1021/je500996n)
# Assay: xn = mol fraction of the nth substance listed
# Settings: 318.15 K, 100 kPa, Liquid, Vibrating tube method
smiles,measurement,setting,value
CC1(C)COC(=O)[C@@H]1O [D-pantolactone] + O,mass density,x1 = 0.0329,1024.6 ± 4.2 kg/m3
same,mass density,x1 = 0.1193,1065.2 ± 4.7 kg/m3
same,mass density,x1 = 0.1724,1079 ± 4.6 kg/m3
same,mass density,x1 = 0.2107,1083.7 ± 4.5 kg/m3
same,mass density,x1 = 0.2588,1090.5 ± 4.5 kg/m3
same,mass density,x1 = 0.2897,1092.8 ± 4.4 kg/m3
same,mass density,x1 = 0.3372,1095.6 ± 4.5 kg/m3
CC1(C)COC(=O)[C@@H]1O [D-pantolactone] + CCOC(C)=O,mass density,x1 = 0.1189,917.2 ± 3.9 kg/m3
same,mass density,x1 = 0.2551,956.5 ± 4.8 kg/m3
same,mass density,x1 = 0.3447,980 ± 5.3 kg/m3
same,mass density,x1 = 0.4229,999.4 ± 5.5 kg/m3
same,mass density,x1 = 0.4849,1010.7 ± 5.9 kg/m3
same,mass density,x1 = 0.5343,1024.5 ± 7.2 kg/m3
CC1(C)COC(=O)[C@@H]1O [D-pantolactone] + CCO,mass density,x1 = 0.072,827.3 ± 3.7 kg/m3
same,mass density,x1 = 0.1798,885.4 ± 4.9 kg/m3
same,mass density,x1 = 0.3372,952.4 ± 6.9 kg/m3
same,mass density,x1 = 0.3828,972.3 ± 6.6 kg/m3
same,mass density,x1 = 0.4368,987.3 ± 6.4 kg/m3
same,mass density,x1 = 0.4785,1000.1 ± 7.1 kg/m3
CC1(C)COC(=O)[C@@H]1O [D-pantolactone] + CO,mass density,x1 = 0.0696,854.4 ± 4 kg/m3
same,mass density,x1 = 0.1462,912 ± 5.3 kg/m3
same,mass density,x1 = 0.2135,948.1 ± 5.7 kg/m3
same,mass density,x1 = 0.2717,974.8 ± 5.5 kg/m3
same,mass density,x1 = 0.387,1011.8 ± 4.6 kg/m3
same,mass density,x1 = 0.4064,1014.6 ± 4.7 kg/m3

# Numbers after ± are expanded uncertainties.
